# Antibody variant affinities, Ab-14 heavy chain, assay B

Binding partner: SARS-CoV-2 spike HR2 peptide, sequence PDVDLGDISGINAS.

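The variants were designed computationally from a first round of random CDR variants and then made and measured. Several design methods are mixed in this list. The assay is AlphaSeq: two haploid yeast populations carry antibody and antigen on their surface. The frequency of each diploid, read from paired DNA barcodes, reflects how well the two displayed proteins bind. Read counts were normalised to the haploid input and turned into Kd by a linear fit to BCL2-family pairs of known affinity, for each replicate. Each pool was mated in six replicate cultures.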

The variants keep the light chain, the linker and the frameworks of Ab-14 (scFv order VH, three GGGGS repeats, VL).
VH: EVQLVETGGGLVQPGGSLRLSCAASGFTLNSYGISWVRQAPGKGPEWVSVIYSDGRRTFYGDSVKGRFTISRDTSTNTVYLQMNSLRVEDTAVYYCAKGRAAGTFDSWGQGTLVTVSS
VL: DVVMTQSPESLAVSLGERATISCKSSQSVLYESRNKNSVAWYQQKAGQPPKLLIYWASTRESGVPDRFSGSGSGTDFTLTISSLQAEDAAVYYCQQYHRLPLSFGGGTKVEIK

Variants are written as CDR1, CDR2 and CDR3 of the heavy chain (limits as in the source). Parent: GFTLNSYGIS, VIYSDGRRTFYGDSVK, GRAAGTFDS.
Affinities are written as log10 Kd with Kd in nM; a lower number is a better binder.
The mean shown is taken over the replicates in which the pair was detected.
"nd" means that the variant was in the library but no mating with the target was seen in any replicate; the authors take this as a sign of poor binding, and no number exists.
The list is sorted by this average, lowest first, undetected variants last.

CDR-H1	CDR-H2	CDR-H3	mean log10 Kd (nM)	detected	control signals
GFDLNEYGIS	VIYADGVRTFYADSVK	GQLAGTFDL	-0.79	6/6	0/18
GFDLNEYGIS	VIYADGMRTAYSDSVK	GENAGTFDV	-0.68	6/6	0/18
GFDLNEYGIS	VIYADGQRKAYADSVK	GENAGTFDV	-0.59	6/6	0/18
GFSLDEYGIS	VIYADGRRTFYSDDVK	GNVAGTFDS	-0.47	6/6	0/18
GFSLDEYGIS	VIYADGRRTFYQDDVK	GNVAGTFDL	-0.47	6/6	1/18
GFDLNEYGIS	VIYADGRRTAYSDSVK	GTNAGTFDS	-0.37	6/6	0/18
GFTLNEYGIS	VIYSDGRRTFYTDSVK	GREAGTFDA	-0.36	6/6	0/18
GFDLNEYGIS	VIYADGQRTFYADSVK	GNVAGTFDS	-0.34	6/6	0/18
GFTLNEYGIS	VIYADGRRTFYGDSVK	GRAAGTFDV	-0.33	6/6	1/18
GFGLNEYGIS	VIYSDGRRTAYGDSVK	GFSAGDFDS	-0.12	6/6	0/18
GFDLDEYGIS	VIYADGMRTVYADSVK	GENAGTFDL	-0.10	6/6	0/18
GFDLNSYGIS	VIYSDGRRTFYDDSVK	GRMAGTFDS	-0.07	6/6	0/18
GFDLNEYGIS	VIYADGSRTFYSDSVK	GQVAGTFDA	-0.05	6/6	0/18
GFDLNEYGIS	VIYADGRRTFYTDSVK	GEEAGTFDQ	-0.02	6/6	0/18
GFNLNEYGIS	VIYADGRRTFYADSVK	GENAGSFDI	0.08	6/6	1/18
GFTLESYGIS	VIYSDGRRTFYHDSVK	GRAAGTFDS	0.13	4/6	0/18
GFDLNEYGIS	VIYADGMRTFYTDSVK	GEFAGTFDF	0.17	5/6	0/18
GFDLNSYGIS	VIYSDGRRTFYVDSVK	GRQAGTFDT	0.26	6/6	0/18
GFSLNSYGIS	VIYSDGRRTFYGDQVK	GKNAGTFDS	0.27	5/6	0/18
GFDLNEYGIS	VIYADGRRTAYADSVK	GETAGTFDT	0.29	6/6	0/18
GFHLNDYGIS	VIYSDGRRTFYTDSVK	GRAAGTFDS	0.37	6/6	0/18
GFTLNEYGIS	VIYSDGRRTFYGDSVK	GQAAGTFES	0.47	6/6	0/18
GFTLESYGIS	VIYSDGRRTFYGDDVK	GEAAGTFDS	0.51	5/6	0/18
GFTLESYGIS	VIYSDGERTFYADSVK	GRAAGTFDS	0.52	6/6	1/18
GFTLNSYGIS	VIYSDGRRTFYTDSVK	GEVAGTFDS	0.53	6/6	0/18
GFTLNSYGIS	VIYSDGRRTFYGDSVD	GTEAGTFDS	0.60	6/6	0/18
GFNLSEYGIS	VIYADGMRSNYANSVK	GHGGNFFID	0.64	6/6	0/18
GFSLNSYGIS	VIYSDGRRTFYSDSVK	GVAAGTFDS	0.77	6/6	0/18
GFDLNEYGIS	VIYADGMRTAYADSVK	GENAGSFDV	0.87	6/6	0/18
GFDLDEYGIS	VIYADGMRTVYADSVK	GNNAGTFDI	0.92	6/6	0/18
GFDLDEYGIS	VIYADGRRTFYADSVK	GENAGTFLM	1.09	1/6	0/18
GFDLNSYGIS	VIYADGRRTFYGDSVK	GQAAGTFDS	1.15	6/6	0/18
GFTLNEYGIS	VIYSDGRRTFYKDSVK	GRAAGTFDK	1.15	1/6	0/18
GFDLDEYGIS	VIYADGIRKYYVDNVK	GLLAGHTIT	1.19	6/6	0/18
GFDLNSYGIS	VIYSDGRRTFYGDSVK	GEAAGTFDL	1.20	6/6	1/18
GFDLEEYGVS	VIYADGQRFAYAQDFK	GEAAGAFAL	1.33	1/6	0/18
GFTLNSYGIS	VIYSDGWRTFYSDSVK	GWVAGTFDS	1.48	6/6	0/18

Continued, with the values leading:

mean log10 Kd (nM)	detected	control signals	CDR-H1	CDR-H2	CDR-H3
1.50	3/6	0/18	YFTLNSYGIS	VIYSDGMRTFYSDSVK	GRAAGTFDD
1.57	5/6	0/18	KFTLNSYGIS	VIYSDGRRTFYSDSVK	GQTAGTFDS
1.59	1/6	0/18	GFSLNEYGIS	VIYADGKRSFYADSVK	GLISGFFDI
1.59	6/6	0/18	DFTLNSYGIS	VIYSDGRRTFYADSVK	GRAAGTFDS
1.63	6/6	0/18	GFSLNRYGIS	VIYSDGRRTFYGDSVK	GRTAGTFDS
1.91	2/6	0/18	GFELDEYGIS	VIYADGKRKFYDQTVK	GKTDGVILD
1.99	4/6	1/18	GFSLNSYGIS	VIYSDGRRWAYGDSVK	GRAAGTFDS
2.11	1/6	0/18	GFELNEYGIS	VIYSDGRRTFYGDSVK	GRTAGTFWS
2.12	5/6	0/18	GFDLNEYGIS	VIYADGRRTFYADSVK	GTEAGTFDQ
2.27	1/6	0/18	GFDLNEYGIS	VIYADGLRTKYSNAVK	GGLQAHFKL
2.36	3/6	0/18	GFTLNSYGIS	VIYSDGRRTFYGDQVK	GRAAGTFDV
2.58	1/6	1/18	GFTLNSYGIS	VIYADGRRTFYGDSVK	GNAAGTFKM
2.71	1/6	0/18	GFEVDEYGIS	VIYADGKRSMYADKVK	GVIADGMHV
2.73	2/6	0/18	GFTLNSYGIS	VIYSDGRRTRYSDFVK	GKAAGTFDS
2.82	2/6	0/18	GDSLDEMGIS	VIYADGQRSYYANSVK	GEHDGLFFQ
nd	0/6	0/18	GFTLNSYGIS	VIYSDGRRTSYHDFTK	GRAAGTFDS
nd	0/30	1/90	GFSLNSYGIS	VIYSDGKRTFYADSVK	TRAAGTFDS
nd	0/6	1/18	GFTLNDYGIS	VIYSDGRRTWYGDSVK	GRAAGTFTS
nd	0/6	0/18	GFTIDEYGIS	VIYADGSRVAYDDKFK	GMLVGTFDQ
nd	0/6	0/18	GFTLDSYGIS	VIYSDGRRTFYGDSVK	GRAAGTFLQ
nd	0/6	0/18	GFDLNEYGIS	VIYADGKRVAIEDSVK	GKSKGTVFV
nd	0/6	0/18	GFDLNSYGIS	VKYSDGRRTFYGDSGK	GRAAGWFQS
nd	0/6	0/18	GFALESYGIS	VIYSDGRRTFYGDSVK	DRAAGAFDS
nd	0/6	0/18	SFTLNEYGIS	VIYSDGRRTFYGDSVK	GSAAATFDS
nd	0/6	0/18	GFQINEYGIS	VIYADGLRAAYSQDVK	GMDTGDFMD
nd	0/6	0/18	GRNLDEYGIS	VIYADGQRTSYIDNVK	GGDSVHFDM
nd	0/6	0/18	GFTLNEYGIS	VIYSDGRRTFYTDSVK	GRFAGTRDS
nd	0/6	0/18	GFTLNQYGIS	VIYSDGRRTFSSDSVK	GRAAGHWDS
nd	0/6	0/18	GFTLNSYGIS	VIYSDGRRTFYGDSVK	GFAALTFFS
nd	0/6	0/18	GFDLNEYGIS	VIYADGIREHYKDSVK	GVVFGDVLF
nd	0/6	0/18	GFELNEYGIS	VIYADGMKQAYRDDVK	GDIAGNFMQ
nd	0/6	1/18	GFVLSEYGIS	VIYADGNRTFYAPNVK	GQFNDVLNM
nd	0/6	0/18	GFTLNSYGIS	VIYSDGRRTFYLHSVK	GRAAGTFDS
nd	0/6	0/18	GFTLDSYGIS	VIYSDGRRTYYGDSVK	GRAAATALS
nd	0/6	0/18	GFKLDEYGIS	VIYADGCRTAYADSFK	GKTTFSKFV
nd	0/6	1/18	GFTLNSYGIS	VIYADGRRTFYGDSVK	GRAKGTFDW
nd	0/6	0/18	GFTLNSYGIS	VIYSDGRRTFYGDSVK	GREAFFFDS
nd	0/6	0/18	GKDLYEYGIS	VIYADGTRTAAANTVK	GEIAGTLNV

Top 4 of the variants detected in all replicates, tightest first:

CDR-H1	CDR-H2	CDR-H3	mean log10 Kd (nM)	detected	control signals
GFDLNEYGIS	VIYADGVRTFYADSVK	GQLAGTFDL	-0.79	6/6	0/18
GFDLNEYGIS	VIYADGMRTAYSDSVK	GENAGTFDV	-0.68	6/6	0/18
GFDLNEYGIS	VIYADGQRKAYADSVK	GENAGTFDV	-0.59	6/6	0/18
GFSLDEYGIS	VIYADGRRTFYSDDVK	GNVAGTFDS	-0.47	6/6	0/18

The authors averaged sequences with at least three values out of six and counted those with two or fewer as poor binders.
A sequence measured in both rounds can read differently, since the two assays cover different ranges.
Some sequences occur more than once in the pool; their replicates are pooled.
Nonspecific signal, from three strains lacking the peptide, appeared in 1% of pairings of all heavy chain designs, centred on 2.08 (5% of these signals below 0.84); values are not corrected for it. Also given: how often the same scFv was detected with the empty control strains.
The parent sequence was in this pool as ten entries: three were never detected, three once, and four in most replicates, with averages from 0.34 to 2.37.

The measurements come from Li et al. 2023 (doi:10.1038/s41467-023-39022-2) through the FLAb antibody collection.